Target: T1, Tyrosine-protein phosphatase non-receptor type 1 (Homo sapiens, UniProt P18031)
T1 sequence (P18031 whole entry): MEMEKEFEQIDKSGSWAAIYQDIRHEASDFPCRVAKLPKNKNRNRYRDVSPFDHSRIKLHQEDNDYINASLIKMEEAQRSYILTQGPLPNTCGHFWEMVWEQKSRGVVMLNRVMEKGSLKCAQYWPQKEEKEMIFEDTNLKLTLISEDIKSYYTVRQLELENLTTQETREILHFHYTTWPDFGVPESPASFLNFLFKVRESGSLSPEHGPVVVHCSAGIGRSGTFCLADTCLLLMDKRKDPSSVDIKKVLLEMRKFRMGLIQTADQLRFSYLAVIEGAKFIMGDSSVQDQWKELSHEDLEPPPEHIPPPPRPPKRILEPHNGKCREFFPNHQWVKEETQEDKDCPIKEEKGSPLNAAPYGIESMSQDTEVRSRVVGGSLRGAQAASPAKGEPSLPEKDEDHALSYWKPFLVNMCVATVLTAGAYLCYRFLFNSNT
Assay: Inhibition of human recombinant PTP1B

IC50 [µM] | Structure (SMILES)
13.8 | CC1(C)C2CC[C@]3(C)[C@H](C(=O)C=C4[C@@H]5C[C@@](C)(C(=O)O)CC[C@]5(C)CC[C@]43C)[C@@]2(C)CC[C@@H]1O (some centres not stated)
15.6 | CC1(C)C2CC[C@]3(C)[C@H](C(=O)C=C4[C@H]5C[C@@](C)(C(=O)O)CC[C@]5(C)CC[C@]43C)[C@@]2(C)CC[C@@H]1O (some centres not stated)
